Measured values from patent US4681091A, “Combination modality cancer therapy” (priority 1985, dated 1987).

Tested on: bacterial cells (salmonella typhimurium TM677)
Conditions: 200 µM

dichlorobis (ethylenediamine) rhodium (III) [Compound 3]
N/No (toxicity) (salmonella typhimurium tm677, 20 min): 1.12 × 10° | N/No (toxicity) (salmonella typhimurium tm677, 40 min): 1.23 × 10°

Read-outs that look alike come from different tables or passages of the source.
